The record followed here is PubChem BioAssay AID602229 (The Scripps Research Institute Molecular Screening Center, 2012).

Protein sequences, listed by entry. Tags and fused reporters are not part of them.
UniProt Q9Y5X4, whole entry: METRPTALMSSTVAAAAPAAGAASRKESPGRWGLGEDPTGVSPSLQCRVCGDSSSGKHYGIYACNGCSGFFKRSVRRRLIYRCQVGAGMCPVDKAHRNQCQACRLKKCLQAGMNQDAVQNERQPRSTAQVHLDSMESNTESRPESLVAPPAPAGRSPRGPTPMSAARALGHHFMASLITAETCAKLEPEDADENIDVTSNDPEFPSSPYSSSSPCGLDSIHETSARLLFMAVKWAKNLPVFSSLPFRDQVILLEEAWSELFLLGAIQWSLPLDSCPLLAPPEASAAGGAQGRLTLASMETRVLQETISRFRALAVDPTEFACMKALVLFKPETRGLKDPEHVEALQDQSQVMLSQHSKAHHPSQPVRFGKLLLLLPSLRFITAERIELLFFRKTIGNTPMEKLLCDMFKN

Only a part is listed here, and it is no random draw. Some of these compounds have results that are not shown, active ones among them. The source made the active and inactive calls.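 How the source made its calls: active means inhibition above the mean of all tested compounds plus 3 SD (cut at about 70% in these data); inactive means the rest.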

The test concerns the target Photoreceptor-specific nuclear receptor (Homo sapiens) (UniProt Q9Y5X4). Nature of the test: NR2E3 agonists in two-hybrid cells, primary screen, cell-based, luminescence, CHO-S, Gal4-NCOR/VP16-NR2E3 (AID 602229).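 Further: 0% = DMSO with NR2E3 transfected cells and 100% = cells lacking NR2E3 construct; higher means lower luciferase signal from less NR2E3 corepressor binding.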 Conditions: luciferase, at 3.98 µM, hits give high values.
Regarding `C=C(C)C#CC(O)(C(=O)OC1CCN(C)CC1)c1ccccc1` (stereo unspecified), the inhibition of corepressor binding is inactive: 10.9%.

As to `COc1ccc(Br)c(C(=O)NCC2(N3CCCCC3)CCCCC2)c1`, the inhibition of corepressor binding is inactive: 11.8%. For `CC(C)Oc1ccc(C(=O)NCC2(N(C)C)CCCCC2)cc1` the value was inactive: -7.47%; for `O=C(OCCN1CCCC1)C(O)(c1ccccc1)c1ccccc1`, inactive: -15.2%. The figure for `CN(C)c1cccc(C(=O)NCC2(N(C)C)CCCCC2)c1` is inactive: -7.19%. The figure for `O=C(OC1CN2CCC1CC2)C(CO)(c1ccccc1)c1ccccc1` (stereo unspecified) is inactive: -11.6%. For the molecule `COc1cccc(C(=O)NCC2(N3CCCCC3)CCCCC2)c1`, the inhibition of corepressor binding was inactive: 8.86%. Turning to `COc1ccc(Cl)cc1C(=O)NCC1(N(C)C)CCCCC1`, the inhibition of corepressor binding is inactive: -4.32%. For `O=C(NCC1(N2CCCCC2)CCCCC1)c1cccc(Cl)c1` the value was inactive: 25.2%; for `CN(C)C1(CNC(=O)c2ccc(Br)cc2)CCCCC1`, inactive: -45.4%. As to `COc1cc(C(=O)NCC2(N(C)C)CCCCC2)c([N+](=O)[O-])cc1OC`, the inhibition of corepressor binding is inactive: -2.77%. Turning to `C=CCN1CCN(CCOC(=O)C(O)(c2ccccc2)c2ccccc2)CC1`, the inhibition of corepressor binding was inactive: -0.62%.

For `O=C(NCC1(N2CCCCC2)CCCCC1)c1cc(F)c(F)cc1Cl`, the inhibition of corepressor binding is inactive: -8.05%.

Consider `COc1ccc(C(=O)NCC2(N(C)C)CCCCC2)cc1`, for which the inhibition of corepressor binding was inactive: -14.1%. The figure for `Cc1cc(C(=O)NCC2(N3CCCCC3)CCCCC2)ccc1[N+](=O)[O-]` is inactive: 5.54%; for `CCN1CCCC(OC(=O)C2(O)c3ccccc3C=Cc3ccccc32)C1` (stereo unspecified) it is inactive: -0.69%.

`O=C(NCC1(N2CCCCC2)CCCCC1)c1cccc(Br)c1`: the inhibition of corepressor binding is inactive: 6.63%. The figure for `Cc1ccccc1C(=O)NCC1(N2CCCCC2)CCCCC1` is inactive: -2.71%; for `CN(C)C1CCCC1OC(=O)C(O)(c1ccccc1)c1ccccc1` (stereo unspecified) it is inactive: 11.8%. The figure for `CN(C)c1ccc(C(=O)NCC2(N(C)C)CCCCC2)cc1` is inactive: -4.21%. Take `CCN(CC)CC(C)C(C)OC(=O)C(O)(c1ccccc1)c1ccccc1` (stereo unspecified): the inhibition of corepressor binding is inactive: -14.9%. The figure for `COc1cc(SC)ccc1C(=O)NCC1(N(C)C)CCCCC1` is inactive: -19.9%; for `CC(C)N1C(=O)CC2(CCN(CCOC(=O)C(O)(c3ccccc3)c3ccccc3)CC2)C1=O` it is inactive: -18.3%; for `Cc1ccc(C(=O)NCC2(N3CCCCC3)CCCCC2)cc1` it is inactive: 0.64%.

For the molecule `O=C(NCC1(N2CCCCC2)CCCCC1)c1cc([N+](=O)[O-])ccc1Cl`, the inhibition of corepressor binding was inactive: -12.4%. On to `CN1[C@@H]2CC[C@H]1CC(OC(=O)C(O)(c1ccccc1)c1ccccc1)C2` (stereo partly specified), for which the inhibition of corepressor binding is inactive: 4.46%.
